{
  "source": "patent US20240058464A1",
  "about": "“COMBINATION THERAPY WITH FOR46 FOR CANCER” (Fortis Therapeutics, Inc., priority 2021, published 2024)",
  "tested_on": "CD46 expression",
  "experiment": "CD46 expression by RNA-sequencing in paired tumor biopsies before and after therapy;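 note: FFPE human tumor biopsies, exome-capture RNA-seq, reads aligned to GRCh37, counts normalized for GC content, length and depth, summed per gene, log2-transformed, samples paired before versus after therapy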",
  "details": "RNA-seq log2-transformed counts",
  "data": [
    {"compound": "N.N.O=C([O-])C1(C(=O)[O-])CCC1.[Pt+2]", "note": "[carboplatin]", "values": [
      {"measurement": "CD46 expression, Post-Treatment Biopsy", "setting": "Endometrial Cancer", "value": 6.25},
      {"measurement": "CD46 expression, Pre-Treatment Biopsy", "setting": "Non-Small Cell Lung Cancer", "value": 6.13}
    ]}
  ]
}
